Reference: patent US20100267731A1, “USE OF TRANSFORMING GROWTH FACTOR-B RECEPTOR INHIBITORS TO SUPPRESS OCULAR SCARRING” (Summa Health Systems, LLC, priority 2009, published 2010)

Tested on: subconjunctival tissue fibroblast outgrowth
Assay: Subconjunctival tissue fibroblast outgrowth assay ex vivo
Assay type: cell-based, New Zealand white rabbit
Protocol: Under an ophthalmic surgical microscope, subconjunctival tissues were dissected from the surgical site and 180 (6-o'clock position) from the surgical site (the 180° control). Each biopsy specimen (explant) was placed in a 25 cm^2 cell culture flask with complete media. […] The cell outgrowth, in mm, from the edge of each explant was observed, and the length of the outgrowth in 4 quadrants was measured.

**Q.** `CO[C@@]12[C@H](COC(N)=O)C3=C(C(=O)C(C)=C(N)C3=O)N1C[C@@H]1N[C@@H]12` [MMC, mitomycin C] was tested. Which “difference in cell outgrowth versus untreated group” value (explants taken five days after GFS) did it give?
**A.** a significant difference

**Q.** And the “cell outgrowth length, explant from surgical site” value (surgical site, over 18 days)?
**A.** less than 2 mm
